Data published in article PMC12678819, “Targeting bacterial kinases as a strategy to counteract antibiotic resistance” (2025).

By UniProt entry, the sequences of proteins in these tests, tags left out. Where a name states a change or a piece, a line headed by the entry shows the natural chain unless it says otherwise. Residues count along the entry.
UniProt Q16566, 46-300 limits assumed: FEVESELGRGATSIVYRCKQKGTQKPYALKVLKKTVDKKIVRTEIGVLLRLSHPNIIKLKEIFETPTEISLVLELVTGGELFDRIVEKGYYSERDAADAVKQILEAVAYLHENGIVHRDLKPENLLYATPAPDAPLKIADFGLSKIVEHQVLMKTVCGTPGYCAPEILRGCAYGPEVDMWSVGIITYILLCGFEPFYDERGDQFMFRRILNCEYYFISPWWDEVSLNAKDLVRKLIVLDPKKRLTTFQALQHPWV
UniProt O96017, 220-486 limits assumed: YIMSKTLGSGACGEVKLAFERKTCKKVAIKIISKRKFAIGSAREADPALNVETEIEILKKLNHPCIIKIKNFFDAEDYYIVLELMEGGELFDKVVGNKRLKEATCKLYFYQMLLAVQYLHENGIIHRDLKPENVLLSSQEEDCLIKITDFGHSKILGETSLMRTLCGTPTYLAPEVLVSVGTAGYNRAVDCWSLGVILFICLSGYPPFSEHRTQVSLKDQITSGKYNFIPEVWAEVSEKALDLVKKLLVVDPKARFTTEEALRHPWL
UniProt P48730, 9-277 limits assumed: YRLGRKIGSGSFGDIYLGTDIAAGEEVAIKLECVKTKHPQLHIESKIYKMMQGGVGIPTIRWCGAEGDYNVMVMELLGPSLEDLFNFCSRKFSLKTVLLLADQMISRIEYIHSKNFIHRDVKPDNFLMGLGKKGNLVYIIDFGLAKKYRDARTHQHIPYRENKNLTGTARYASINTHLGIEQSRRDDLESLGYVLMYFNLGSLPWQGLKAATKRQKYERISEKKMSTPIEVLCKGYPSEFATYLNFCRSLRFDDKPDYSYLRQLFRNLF
UniProt O15075, 372-649 limits assumed: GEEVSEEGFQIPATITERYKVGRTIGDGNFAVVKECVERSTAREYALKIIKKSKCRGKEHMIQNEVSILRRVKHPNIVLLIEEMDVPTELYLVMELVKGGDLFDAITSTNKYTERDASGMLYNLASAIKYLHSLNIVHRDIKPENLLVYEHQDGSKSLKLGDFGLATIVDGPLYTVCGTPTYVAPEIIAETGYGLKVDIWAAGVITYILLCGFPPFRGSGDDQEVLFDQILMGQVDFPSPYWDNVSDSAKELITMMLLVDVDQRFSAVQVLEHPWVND
UniProt O94768, 25-329 limits assumed: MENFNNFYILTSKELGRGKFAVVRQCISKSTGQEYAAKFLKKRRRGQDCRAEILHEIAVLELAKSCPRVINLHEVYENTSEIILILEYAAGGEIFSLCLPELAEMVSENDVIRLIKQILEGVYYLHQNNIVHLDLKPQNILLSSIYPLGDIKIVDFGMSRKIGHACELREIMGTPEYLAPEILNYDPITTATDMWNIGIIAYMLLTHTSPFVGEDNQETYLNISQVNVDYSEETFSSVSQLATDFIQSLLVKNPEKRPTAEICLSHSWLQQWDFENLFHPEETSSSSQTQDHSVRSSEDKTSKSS
UniProt Q15375, 590-899 limits assumed: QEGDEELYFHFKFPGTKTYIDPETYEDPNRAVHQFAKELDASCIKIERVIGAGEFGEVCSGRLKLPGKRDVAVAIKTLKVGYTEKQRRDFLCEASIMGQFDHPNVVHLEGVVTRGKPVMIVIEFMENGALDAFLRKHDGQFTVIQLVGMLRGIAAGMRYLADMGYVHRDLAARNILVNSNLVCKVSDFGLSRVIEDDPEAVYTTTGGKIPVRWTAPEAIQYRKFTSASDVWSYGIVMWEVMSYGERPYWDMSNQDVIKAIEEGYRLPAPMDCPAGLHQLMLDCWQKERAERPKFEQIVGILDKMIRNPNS
UniProt P54753, 633-896 limits assumed: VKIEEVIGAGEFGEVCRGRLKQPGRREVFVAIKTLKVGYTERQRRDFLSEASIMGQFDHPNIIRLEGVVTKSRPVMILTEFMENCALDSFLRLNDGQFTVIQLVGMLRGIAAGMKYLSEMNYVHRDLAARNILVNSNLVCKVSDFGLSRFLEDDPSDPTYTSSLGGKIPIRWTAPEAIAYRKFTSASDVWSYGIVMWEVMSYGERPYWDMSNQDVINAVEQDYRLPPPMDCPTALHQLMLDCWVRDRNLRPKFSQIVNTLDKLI
UniProt P28482, 25-313 limits assumed: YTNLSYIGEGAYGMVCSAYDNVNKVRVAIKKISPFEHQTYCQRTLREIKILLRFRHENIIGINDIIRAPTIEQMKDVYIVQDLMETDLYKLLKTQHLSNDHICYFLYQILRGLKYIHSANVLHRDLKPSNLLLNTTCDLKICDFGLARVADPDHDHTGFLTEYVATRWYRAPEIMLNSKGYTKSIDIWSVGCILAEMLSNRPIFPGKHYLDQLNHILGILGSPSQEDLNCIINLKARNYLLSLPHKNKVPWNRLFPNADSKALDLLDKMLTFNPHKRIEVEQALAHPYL
UniProt P22830, 55-423 limits assumed: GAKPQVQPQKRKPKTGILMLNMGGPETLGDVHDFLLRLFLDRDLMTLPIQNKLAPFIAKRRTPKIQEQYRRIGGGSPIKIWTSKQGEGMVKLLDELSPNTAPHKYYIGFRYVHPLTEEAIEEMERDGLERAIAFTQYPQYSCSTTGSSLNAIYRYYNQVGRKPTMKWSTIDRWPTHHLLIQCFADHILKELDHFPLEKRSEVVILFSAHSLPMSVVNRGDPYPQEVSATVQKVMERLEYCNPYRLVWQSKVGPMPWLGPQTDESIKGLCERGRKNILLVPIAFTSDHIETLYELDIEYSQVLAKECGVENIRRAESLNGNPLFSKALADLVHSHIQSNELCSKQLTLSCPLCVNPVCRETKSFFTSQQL
UniProt P17948, 801-1158 limits assumed: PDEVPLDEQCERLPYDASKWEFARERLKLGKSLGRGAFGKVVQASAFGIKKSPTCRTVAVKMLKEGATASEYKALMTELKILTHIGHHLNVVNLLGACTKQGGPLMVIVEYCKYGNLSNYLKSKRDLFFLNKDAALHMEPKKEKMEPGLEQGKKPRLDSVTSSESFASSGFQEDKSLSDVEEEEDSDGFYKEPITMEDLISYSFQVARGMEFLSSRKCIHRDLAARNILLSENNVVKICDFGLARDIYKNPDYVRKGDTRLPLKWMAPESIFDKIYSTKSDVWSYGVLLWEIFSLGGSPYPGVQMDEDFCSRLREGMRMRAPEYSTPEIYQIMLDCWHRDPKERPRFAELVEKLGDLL
UniProt Q8TF76, 484-798 limits assumed: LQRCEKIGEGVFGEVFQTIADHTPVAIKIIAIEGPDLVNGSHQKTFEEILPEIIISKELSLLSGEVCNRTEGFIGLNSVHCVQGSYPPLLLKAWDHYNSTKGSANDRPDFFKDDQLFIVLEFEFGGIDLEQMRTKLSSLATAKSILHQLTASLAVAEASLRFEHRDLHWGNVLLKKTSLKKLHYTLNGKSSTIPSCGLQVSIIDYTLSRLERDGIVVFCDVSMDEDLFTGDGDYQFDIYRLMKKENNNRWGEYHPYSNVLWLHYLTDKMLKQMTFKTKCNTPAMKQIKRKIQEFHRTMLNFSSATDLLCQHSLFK
UniProt P45983, 1-364 limits assumed: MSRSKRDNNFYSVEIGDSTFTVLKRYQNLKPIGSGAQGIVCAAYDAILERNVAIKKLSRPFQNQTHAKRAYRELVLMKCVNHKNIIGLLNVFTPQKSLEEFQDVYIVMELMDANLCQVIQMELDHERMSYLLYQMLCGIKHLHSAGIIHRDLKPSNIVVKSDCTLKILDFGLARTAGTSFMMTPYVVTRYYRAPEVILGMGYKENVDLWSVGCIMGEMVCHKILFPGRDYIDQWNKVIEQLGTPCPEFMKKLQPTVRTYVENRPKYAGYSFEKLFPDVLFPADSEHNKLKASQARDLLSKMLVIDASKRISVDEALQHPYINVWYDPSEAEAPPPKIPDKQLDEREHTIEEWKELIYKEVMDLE
UniProt P49137, 64-325 limits assumed: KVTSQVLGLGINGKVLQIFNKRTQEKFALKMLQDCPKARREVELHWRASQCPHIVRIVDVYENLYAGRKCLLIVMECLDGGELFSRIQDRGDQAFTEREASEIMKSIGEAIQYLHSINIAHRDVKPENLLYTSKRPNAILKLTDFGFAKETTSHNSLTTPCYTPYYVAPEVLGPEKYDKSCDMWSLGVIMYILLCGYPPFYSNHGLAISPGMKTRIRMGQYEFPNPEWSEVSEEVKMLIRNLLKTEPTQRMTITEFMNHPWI
UniProt Q9UPE1, 79-565 limits assumed: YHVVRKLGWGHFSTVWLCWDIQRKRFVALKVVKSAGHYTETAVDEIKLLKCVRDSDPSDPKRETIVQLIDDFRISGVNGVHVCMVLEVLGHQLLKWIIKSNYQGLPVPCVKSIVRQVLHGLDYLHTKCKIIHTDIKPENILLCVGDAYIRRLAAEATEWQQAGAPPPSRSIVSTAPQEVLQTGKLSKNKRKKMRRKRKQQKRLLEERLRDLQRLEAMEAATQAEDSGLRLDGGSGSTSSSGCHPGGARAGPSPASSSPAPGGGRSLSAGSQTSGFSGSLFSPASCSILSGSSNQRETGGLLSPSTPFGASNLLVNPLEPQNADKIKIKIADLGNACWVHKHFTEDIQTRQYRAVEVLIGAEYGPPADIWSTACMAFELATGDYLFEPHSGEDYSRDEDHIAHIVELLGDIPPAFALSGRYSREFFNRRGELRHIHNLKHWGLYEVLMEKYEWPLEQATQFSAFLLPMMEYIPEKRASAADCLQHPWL
UniProt Q13188, 16-313 limits assumed: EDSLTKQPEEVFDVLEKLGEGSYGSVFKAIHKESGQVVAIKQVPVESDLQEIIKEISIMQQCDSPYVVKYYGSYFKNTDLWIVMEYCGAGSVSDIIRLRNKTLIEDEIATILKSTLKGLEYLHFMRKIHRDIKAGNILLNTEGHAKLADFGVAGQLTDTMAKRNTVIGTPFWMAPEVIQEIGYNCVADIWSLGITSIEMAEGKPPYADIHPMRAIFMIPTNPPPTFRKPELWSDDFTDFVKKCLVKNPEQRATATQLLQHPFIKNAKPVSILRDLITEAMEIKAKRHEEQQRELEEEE
UniProt Q9Y6E0, 36-286 limits assumed: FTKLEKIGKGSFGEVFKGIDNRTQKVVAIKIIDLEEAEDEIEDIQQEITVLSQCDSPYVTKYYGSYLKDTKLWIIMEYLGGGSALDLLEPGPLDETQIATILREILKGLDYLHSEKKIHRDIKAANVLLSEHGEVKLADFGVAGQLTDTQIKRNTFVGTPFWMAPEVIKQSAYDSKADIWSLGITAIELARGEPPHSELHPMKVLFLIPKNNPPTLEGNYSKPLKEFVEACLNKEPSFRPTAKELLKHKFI
UniProt Q8TDX7, 34-299 limits assumed: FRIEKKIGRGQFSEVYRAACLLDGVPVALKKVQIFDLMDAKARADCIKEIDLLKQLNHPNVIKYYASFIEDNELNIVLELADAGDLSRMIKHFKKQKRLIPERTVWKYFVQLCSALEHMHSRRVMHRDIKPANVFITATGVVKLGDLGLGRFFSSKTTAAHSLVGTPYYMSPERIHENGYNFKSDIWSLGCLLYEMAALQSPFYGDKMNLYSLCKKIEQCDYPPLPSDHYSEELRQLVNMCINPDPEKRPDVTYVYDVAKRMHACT
UniProt Q00536, 163-478 limits assumed: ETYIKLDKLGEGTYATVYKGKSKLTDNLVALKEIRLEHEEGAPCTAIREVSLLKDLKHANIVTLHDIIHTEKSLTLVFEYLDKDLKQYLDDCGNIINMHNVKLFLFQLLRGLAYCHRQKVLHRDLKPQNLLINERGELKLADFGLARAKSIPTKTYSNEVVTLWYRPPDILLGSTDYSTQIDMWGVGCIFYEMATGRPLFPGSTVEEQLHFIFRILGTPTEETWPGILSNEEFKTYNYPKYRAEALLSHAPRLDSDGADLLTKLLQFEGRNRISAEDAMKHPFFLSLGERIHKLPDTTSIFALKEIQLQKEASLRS
UniProt P15735, 6-293 limits assumed: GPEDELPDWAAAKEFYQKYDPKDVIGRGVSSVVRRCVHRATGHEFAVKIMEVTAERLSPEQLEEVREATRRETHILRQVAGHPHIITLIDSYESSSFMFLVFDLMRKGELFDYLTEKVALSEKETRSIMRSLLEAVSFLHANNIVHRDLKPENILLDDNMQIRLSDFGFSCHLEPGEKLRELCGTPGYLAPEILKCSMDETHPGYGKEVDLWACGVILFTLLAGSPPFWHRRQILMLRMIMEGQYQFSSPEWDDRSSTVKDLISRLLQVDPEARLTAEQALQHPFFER
UniProt Q16539, whole entry, looked up: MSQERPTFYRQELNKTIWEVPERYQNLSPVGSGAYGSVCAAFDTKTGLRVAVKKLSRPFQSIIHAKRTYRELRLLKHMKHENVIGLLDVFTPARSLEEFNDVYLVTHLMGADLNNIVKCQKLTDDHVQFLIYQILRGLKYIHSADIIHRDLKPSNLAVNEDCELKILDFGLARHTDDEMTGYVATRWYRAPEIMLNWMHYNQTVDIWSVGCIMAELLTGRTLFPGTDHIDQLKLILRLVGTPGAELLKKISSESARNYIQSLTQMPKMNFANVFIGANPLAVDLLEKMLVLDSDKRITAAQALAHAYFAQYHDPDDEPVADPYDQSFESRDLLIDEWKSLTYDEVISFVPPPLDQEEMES
UniProt O15264: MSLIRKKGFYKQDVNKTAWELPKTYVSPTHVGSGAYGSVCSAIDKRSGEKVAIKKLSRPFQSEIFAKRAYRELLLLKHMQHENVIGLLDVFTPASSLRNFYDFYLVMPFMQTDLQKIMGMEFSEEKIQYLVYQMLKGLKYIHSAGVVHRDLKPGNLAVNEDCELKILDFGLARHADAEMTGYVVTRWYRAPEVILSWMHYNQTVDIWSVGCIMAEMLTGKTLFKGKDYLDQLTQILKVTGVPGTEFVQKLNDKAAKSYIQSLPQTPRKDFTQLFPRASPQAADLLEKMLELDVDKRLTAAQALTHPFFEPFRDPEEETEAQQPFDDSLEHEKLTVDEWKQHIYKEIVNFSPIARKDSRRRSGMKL

Experiments:
Assay in all cases: DSF kinase panel
Conditions in all cases: 10 μM
BRAF = BRAF (Homo sapiens, UniProt P15056)
BRD4 = BRD4 (Homo sapiens, UniProt O60885)
CAMK4 = CAMK4 (Homo sapiens, UniProt Q16566)
CHK2 = CHK2 (Homo sapiens, UniProt O96017)
CK1d = CK1d (Homo sapiens, UniProt P48730)
DAPK1 = DAPK1 (Homo sapiens, UniProt P53355)
DCAMKL1 = DCAMKL1 (Homo sapiens, UniProt O15075)
DRAK2 = DRAK2 (Homo sapiens, UniProt O94768)
EPHA5 = EPHA5 (Homo sapiens, UniProt P54756)
EPHA7 = EPHA7 (Homo sapiens, UniProt Q15375)
EPHB3 = EPHB3 (Homo sapiens, UniProt P54753)
EphA2 = EphA2 (Homo sapiens, UniProt P29317)
Erk2 = Erk2 (Homo sapiens, UniProt P28482)
FECH = FECH (Homo sapiens, UniProt P22830)
FGFR2 = FGFR2 (Homo sapiens, UniProt P21802)
FLT1 = FLT1 (Homo sapiens, UniProt P17948)
GAK = GAK (Homo sapiens, UniProt O14976)
Haspin = Haspin (Homo sapiens, UniProt Q8TF76)
JNK1 = JNK1 (Homo sapiens, UniProt P45983)
JNK2 = JNK2 (Homo sapiens, UniProt P45984)
JNK3 = JNK3 (Homo sapiens, UniProt P53779)
MAP2K1 = MAP2K1 (Homo sapiens, UniProt Q02750)
MAP2K6 = MAP2K6 (Homo sapiens, UniProt P52564)
MAP2K7 = MAP2K7 (Homo sapiens, UniProt O14733)
MAP3K5 = MAP3K5 (Homo sapiens, UniProt Q99683)
MAPKAPK2 = MAPKAPK2 (Homo sapiens, UniProt P49137)
MARK4 = MARK4 (Homo sapiens, UniProt Q96L34)
MEK4 = MEK4 (Homo sapiens, UniProt P45985)
MER = MER (Homo sapiens, UniProt Q12866)
MSSK1 = MSSK1 (Homo sapiens, UniProt Q9UPE1)
MST1 = MST1 (Homo sapiens, UniProt Q13043)
MST2 = MST2 (Homo sapiens, UniProt Q13188)
MST3 = MST3 (Homo sapiens, UniProt Q9Y6E0)
MST4 = MST4 (Homo sapiens, UniProt Q9P289)
NDR2 = NDR2 (Homo sapiens, UniProt Q9Y2H1)
NEK7 = NEK7 (Homo sapiens, UniProt Q8TDX7)
PAK4 = PAK4 (Homo sapiens, UniProt O96013)
PCTAIRE1 = PCTAIRE1 (Homo sapiens, UniProt Q00536)
PHKg2 = PHKg2 (Homo sapiens, UniProt P15735)
SLK = SLK (Homo sapiens, UniProt Q9H2G2)
p38a = p38a (Homo sapiens, UniProt Q16539)
p38d = p38d (Homo sapiens, UniProt O15264)

In the case of `C[C@H](O)Cn1cc(-c2c(Cl)cnc3[nH]ccc23)nn1`, the “ΔTm BRAF” value (BRAF) is reported as 1.0 °C, the “ΔTm BRD4” value (BRD4) is reported as 1.7 °C and the “ΔTm CAMK4” value (CAMK4) is reported as -2.5 °C. For the same compound, the “ΔTm CHK2” value (CHK2) was 2.2 °C, the “ΔTm CK1d” value (CK1d) was 3.9 °C and the “ΔTm DAPK1” value (DAPK1) was 2.4 °C. The “ΔTm DCAMKL1” value (DCAMKL1) was 0.6 °C, the “ΔTm DRAK2” value (DRAK2) was 2.2 °C and the “ΔTm EPHA5” value (EPHA5) was -0.4 °C. The “ΔTm EPHA7” value (EPHA7) was 1.2 °C, the “ΔTm EPHB3” value (EPHB3) was 1.3 °C and the “ΔTm EphA2” value (EphA2) was -0.4 °C. The “ΔTm Erk2” value (Erk2) was 0.6 °C, the “ΔTm FECH” value (FECH) was -0.7 °C and the “ΔTm FGFR2” value (FGFR2) was -0.1 °C. For the same compound, the “ΔTm FLT1” value (FLT1) was 3.8 °C, the “ΔTm GAK” value (GAK) was 3.1 °C and the “ΔTm Haspin” value (Haspin) was 3.2 °C. For the same compound, the “ΔTm JNK1” value (JNK1) was 1.8 °C, the “ΔTm JNK2” value (JNK2) was 0.6 °C and the “ΔTm JNK3” value (JNK3) was 1.9 °C. For the same compound, the “ΔTm MAP2K1” value (MAP2K1) was 0.3 °C, the “ΔTm MAP2K6” value (MAP2K6) was 3.6 °C and the “ΔTm MAP2K7” value (MAP2K7) was 0.0 °C. The “ΔTm MAP3K5” value (MAP3K5) was 6.5 °C, the “ΔTm MAPKAPK2” value (MAPKAPK2) was 0.5 °C and the “ΔTm MARK4” value (MARK4) was 2.0 °C. For the same compound, the “ΔTm MEK4” value (MEK4) was 4.5 °C, the “ΔTm MER” value (MER) was 0.4 °C and the “ΔTm MSSK1” value (MSSK1) was -0.1 °C. The “ΔTm MST1” value (MST1) was 2.7 °C, the “ΔTm MST2” value (MST2) was 2.7 °C and the “ΔTm MST3” value (MST3) was -1.0 °C. The “ΔTm MST4” value (MST4) was -0.1 °C, the “ΔTm NDR2” value (NDR2) was -0.8 °C and the “ΔTm NEK7” value (NEK7) was -0.6 °C. The “ΔTm PAK4” value (PAK4) was 2.5 °C, the “ΔTm PCTAIRE1” value (PCTAIRE1) was 0.1 °C and the “ΔTm PHKg2” value (PHKg2) was 1.4 °C. The “ΔTm SLK” value (SLK) was -0.2 °C, the “ΔTm p38a” value (p38a) was -0.6 °C and the “ΔTm p38d” value (p38d) was 0.5 °C.

With `C[C@@H](O)Cn1cc(-c2c(Cl)cnc3[nH]ccc23)nn1` the “ΔTm BRAF” value (BRAF) was 1.1 °C, the “ΔTm BRD4” value (BRD4) was 0.8 °C and the “ΔTm CAMK4” value (CAMK4) was 0.1 °C. The “ΔTm CHK2” value (CHK2) was 2.2 °C, the “ΔTm CK1d” value (CK1d) was 4.7 °C and the “ΔTm DAPK1” value (DAPK1) was 2.5 °C. For the same compound, the “ΔTm DCAMKL1” value (DCAMKL1) was 0.0 °C, the “ΔTm DRAK2” value (DRAK2) was 1.8 °C and the “ΔTm EPHA5” value (EPHA5) was -0.6 °C. The “ΔTm EPHA7” value (EPHA7) was 0.9 °C, the “ΔTm EPHB3” value (EPHB3) was -1.6 °C and the “ΔTm EphA2” value (EphA2) was -0.4 °C. For the same compound, the “ΔTm Erk2” value (Erk2) was 0.5 °C, the “ΔTm FECH” value (FECH) was -1.8 °C and the “ΔTm FGFR2” value (FGFR2) was -0.1 °C. For the same compound, the “ΔTm FLT1” value (FLT1) was 3.7 °C, the “ΔTm GAK” value (GAK) was 2.6 °C and the “ΔTm Haspin” value (Haspin) was 2.7 °C. For the same compound, the “ΔTm JNK1” value (JNK1) was 1.8 °C, the “ΔTm JNK2” value (JNK2) was 0.3 °C and the “ΔTm JNK3” value (JNK3) was 2.1 °C. For the same compound, the “ΔTm MAP2K1” value (MAP2K1) was 0.2 °C, the “ΔTm MAP2K6” value (MAP2K6) was 3.8 °C and the “ΔTm MAP2K7” value (MAP2K7) was -0.6 °C. For the same compound, the “ΔTm MAP3K5” value (MAP3K5) was 7.1 °C, the “ΔTm MAPKAPK2” value (MAPKAPK2) was 0.1 °C and the “ΔTm MARK4” value (MARK4) was 2.0 °C. For the same compound, the “ΔTm MEK4” value (MEK4) was 4.5 °C, the “ΔTm MER” value (MER) was 0.0 °C and the “ΔTm MSSK1” value (MSSK1) was -0.1 °C. The “ΔTm MST1” value (MST1) was 2.0 °C, the “ΔTm MST2” value (MST2) was 2.3 °C and the “ΔTm MST3” value (MST3) was -1.6 °C. For the same compound, the “ΔTm MST4” value (MST4) was -0.9 °C, the “ΔTm NDR2” value (NDR2) was -1.0 °C and the “ΔTm NEK7” value (NEK7) was -1.2 °C. The “ΔTm PAK4” value (PAK4) was 2.7 °C, the “ΔTm PCTAIRE1” value (PCTAIRE1) was 0.1 °C and the “ΔTm PHKg2” value (PHKg2) was 0.9 °C. For the same compound, the “ΔTm SLK” value (SLK) was -0.9 °C, the “ΔTm p38a” value (p38a) was -0.6 °C and the “ΔTm p38d” value (p38d) was 0.6 °C.
